This is an account of results in patent US20250281497A1, “FUSED AMINO PYRIMIDINE COMPOUNDS FOR TREATMENT OF SEIZURE DISORDERS” (Ovid Therapeutics Inc., priority 2024, published 2025).

Chains of the proteins cited; added tags and fusions are not shown. Residues count along the entry.
UniProt Q9H2X9, 1-1116 isoform 2: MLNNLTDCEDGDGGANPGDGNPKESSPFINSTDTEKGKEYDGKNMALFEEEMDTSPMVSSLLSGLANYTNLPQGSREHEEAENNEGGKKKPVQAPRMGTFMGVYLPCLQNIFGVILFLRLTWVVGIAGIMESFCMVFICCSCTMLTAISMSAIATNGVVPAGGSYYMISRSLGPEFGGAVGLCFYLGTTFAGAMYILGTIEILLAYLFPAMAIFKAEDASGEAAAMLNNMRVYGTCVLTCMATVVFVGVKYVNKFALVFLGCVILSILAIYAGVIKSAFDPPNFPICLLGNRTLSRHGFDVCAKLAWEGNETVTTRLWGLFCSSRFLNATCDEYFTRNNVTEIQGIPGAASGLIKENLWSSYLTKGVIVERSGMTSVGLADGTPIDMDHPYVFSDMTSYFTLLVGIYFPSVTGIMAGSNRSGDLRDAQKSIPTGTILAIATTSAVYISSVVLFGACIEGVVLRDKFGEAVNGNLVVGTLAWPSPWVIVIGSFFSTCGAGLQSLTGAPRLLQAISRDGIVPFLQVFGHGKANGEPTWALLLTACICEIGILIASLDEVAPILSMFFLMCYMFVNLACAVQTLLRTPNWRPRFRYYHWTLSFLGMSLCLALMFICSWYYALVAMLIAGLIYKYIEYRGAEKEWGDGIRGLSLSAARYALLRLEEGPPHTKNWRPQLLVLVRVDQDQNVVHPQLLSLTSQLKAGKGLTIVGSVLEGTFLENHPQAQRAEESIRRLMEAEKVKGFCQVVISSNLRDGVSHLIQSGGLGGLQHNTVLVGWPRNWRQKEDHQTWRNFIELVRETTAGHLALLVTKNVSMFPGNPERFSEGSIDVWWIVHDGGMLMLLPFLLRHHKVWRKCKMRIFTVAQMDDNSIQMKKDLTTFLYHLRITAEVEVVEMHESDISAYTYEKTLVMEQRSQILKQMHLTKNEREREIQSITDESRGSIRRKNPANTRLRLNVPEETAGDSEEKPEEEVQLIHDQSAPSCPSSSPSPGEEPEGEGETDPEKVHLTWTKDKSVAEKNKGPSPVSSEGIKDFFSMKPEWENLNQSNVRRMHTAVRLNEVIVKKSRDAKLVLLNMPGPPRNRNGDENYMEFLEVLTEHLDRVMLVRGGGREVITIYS

For this experiment, the target named is KCC2 (Homo sapiens, UniProt Q9H2X9). Description: Cellular thermal shift assay (CETSA) in transfected HEK-293 cells. In kind it is binding. As to conditions: 30 μM, 90 min, heated 37-58° C.

As for `CC(C)N1Cc2c(Nc3ccc(C4CCCCC4)cc3)nc(N3CCOCC3)nc2C1=O`, the “thermal stability of KCC2 / direct binding (CETSA)” value is reported as “reduced the thermal stability of KCC2”.
